The subject of the series is CCn1c(=NN=c2sc3cc(S(=O)(=O)O)ccc3n2CC)sc2cc(S(=O)(=O)O)ccc21. Kind of series: purified protein. The settings on record: 0.25 mM H2O2, 50 mM tartrate pH 3, 30 °C.

Results on 1 substance are retold here after paper PMC11546867.

By Km is commonly meant the substrate concentration at which the rate is half of its maximum. What is called kcat is the maximal rate divided by the concentration of active sites.

Consider CgaDyP1 (Coriolopsis gallica), for which the Michaelis-Menten constant (Km) is given as 0.14 ± 0.02 mM and the kcat stood at 2.95 s⁻¹.
